Results: ChEMBL document CHEMBL2384918, “Identification of Selective Nanomolar Inhibitors of the Human Neuraminidase, NEU4” (ACS Med Chem Lett, 2013)

Target: T1, Sialidase-4 (Homo sapiens, UniProt Q8WWR8)
T1 sequence (Q8WWR8 whole entry): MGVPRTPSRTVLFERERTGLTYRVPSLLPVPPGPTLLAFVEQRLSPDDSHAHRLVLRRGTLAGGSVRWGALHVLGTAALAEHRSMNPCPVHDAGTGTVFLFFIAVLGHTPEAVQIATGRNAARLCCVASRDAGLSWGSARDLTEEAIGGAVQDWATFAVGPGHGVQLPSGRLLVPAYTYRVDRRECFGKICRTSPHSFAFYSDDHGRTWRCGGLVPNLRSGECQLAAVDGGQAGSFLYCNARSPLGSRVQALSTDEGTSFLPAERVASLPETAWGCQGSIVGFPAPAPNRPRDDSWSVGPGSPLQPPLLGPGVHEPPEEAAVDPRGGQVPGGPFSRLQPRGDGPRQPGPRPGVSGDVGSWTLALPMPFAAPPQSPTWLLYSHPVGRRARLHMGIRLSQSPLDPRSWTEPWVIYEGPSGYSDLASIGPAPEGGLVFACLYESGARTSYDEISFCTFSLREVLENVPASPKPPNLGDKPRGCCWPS
Test: Inhibition of human NEU4 using GM3 as substrate preincubated for 30 mins before substrate addition measured after 1 hr by fluorescence plate reader analysis

IC50: 260 µM
SMILES: CC(=O)N[C@H]1[C@H]([C@H](O)[C@H](O)CO)OC(C(=O)O)=C[C@@H]1O [NEU5AC2EN]
